Test: Solubility of the PEGylated human amylin
Type: physicochemical
Conditions: calculated in the peptide moiety basis

Question: For “PEGylated human amylin: human amylin monoconjugated at the N-terminal Lys1 region with 5 kDa methoxyl polyethylene glycol succinimidyl carbonate (mPEGsc5k) (KCNTATCATQRLANFLVHSSNNFGAILSSTNVGSNTY; one methoxy-PEG 5 kDa (from mPEG succinimidyl carbonate) in the N-terminal region, aimed at an amino group of Lys1; C-terminal amide; disulfide bridge between C2 and C7)”, which solubility is on record?
Answer: over 10 mg/mL
